# AlphaSeq binding of Ab-95 light chain variants to a spike HR2 peptide

Data: MIT Lincoln Laboratory AlphaSeq set, Engelhart et al. 2022, doi:10.1038/s41597-022-01779-4, as distributed in FLAb.

All variants were tested on one target, the spike HR2 peptide PDVDLGDISGINAS (SARS-CoV-2).

Parent scFv Ab-95: VH joined to VL by a (GGGGS)3 linker. Changes lie in the light chain CDRs alone.
VH: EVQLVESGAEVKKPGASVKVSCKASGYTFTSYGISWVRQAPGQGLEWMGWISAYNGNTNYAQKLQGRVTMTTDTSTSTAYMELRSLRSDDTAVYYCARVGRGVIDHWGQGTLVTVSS
VL: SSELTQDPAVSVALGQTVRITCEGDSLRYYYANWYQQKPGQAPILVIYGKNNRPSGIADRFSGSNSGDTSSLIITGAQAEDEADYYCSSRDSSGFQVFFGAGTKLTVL

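In library AAYL52, one, two or three CDR residues were substituted; doubles and triples were drawn at random. The scFvs were displayed on barcoded MATa yeast, the peptide on MATalpha yeast. Binding brings cells together so that they mate, and sequencing counts the barcode pairs among the diploids. The ratio of observed to expected reads was calibrated, replicate by replicate, on BCL2-family standards whose Kd was known from biolayer interferometry. Each pool was mated in three replicate cultures.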

Each variant is given by its three light chain CDRs, as the data file delimits them; those of the parent are EGDSLRYYYAN, GKNNRPS, SSRDSSGFQVF.
Every variant below is changed at S89 of the VL (sequential numbering).
Numbers give log10(Kd / nM), so 0 is 1 nM and 3 is 1 µM. Smaller is tighter.
"nd" marks a missing value. The strain was present, yet no cells mated with the target were sequenced in that replicate, which points to weak or no binding.
For reference, the parent read 2.31 as the reference entry and 2.25 as a member of this library.

* EVDSLRYYYAN, GKNNRVS, SFRDSSGFQVF -> 1.88, 2.16, 2.25
* EGDSLRYYYNN, GKNNRPS, SARDSSGFQVN -> 2.74, 3.12, nd
* EGDSLRYYYAN, GKNNRPS, SWRDSSKFQVG -> 2.03, 1.89, 1.86
* EGDSLRYYYAN, GKNNRPS, SERDSSGFQVF -> nd, nd, nd
* EGDSDRYYYAN, GKNNRPS, SRRDSQGFQVF -> 5.26, nd, 4.75
* EGDSLRYYYAN, GKNNRPS, SVRDSSGFQVF -> 2.22, 2.03, 1.98
* EGDSSRYYYAN, GKRNRPS, SKRDSSGFQVF -> 4.07, 4.30, nd
* PGDSLRYYYAN, TKNNRPS, SKRDSSGFQVF -> 4.85, nd, nd
* EGDSLRYYYAN, GKHNRPS, SDRDSTGFQVF -> nd, nd, 2.80
* EGDSLRYYYGN, GKNNRPS, SHRDSSGFQVF -> 3.36, 4.03, nd
* EGDSLRYYYAN, GKNNRPS, SCLDSSGFSVF -> 2.28, 2.06, 2.11
* EGDSLRYYYAT, GLNNRPS, SQRDSSGFQVF -> 5.34, nd, nd
* EGDSLRYYYAN, GKNQRPS, SWRDSSGFQVF -> 3.46, 2.73, 2.19
* EGDSLRYYYAK, GKNNRPS, SMRDSSGFQVF -> nd, 4.06, nd
* EGDSSRYYYAN, GKNNRPR, SERDSSGFQVF -> nd, nd, nd
* EGDSNRYYIAN, GKNNRPS, SFRDSSGFQVF -> 3.45, 3.81, nd
* EGMSLRYYYAN, GKNNRPS, SVRDSSGFYVF -> nd, nd, nd
* EGMSLRYYYAN, GKNRRPS, SKRDSSGFQVF -> nd, nd, nd
* EGDSLRYYYAN, GKNNRGS, SARDSSGFQVF -> 2.80, 2.73, 2.20
* EGDSLRYYYAN, GKNNRPS, SKRDSSGEQPF -> 2.30, 2.71, 2.35
* EGDSLRYYYAN, GKNNRPS, SYRDSSGFQVF -> 2.38, 2.58, 1.94
* EGDSLRYYYAA, GKNNQPS, SPRDSSGFQVF -> 3.74, nd, nd
* EGDSLRYYHAN, GKNNRQS, SKRDSSGFQVF -> 3.03, 3.69, nd
* ESDSLRYYYAN, GKNNRPS, SLRDSSGSQVF -> 2.91, 2.73, 2.14
* EGDSLRYDYAN, GKNNRPS, SVRDGSGFQVF -> 1.75, 1.56, 1.13
* EGDSLRHYYAN, GKNNRPS, SYRDMSGFQVF -> nd, 4.34, 4.56
* EGDSLRYYYAL, GKNNAPS, SKRDSSGFQVF -> nd, nd, nd
* ECDSLRYYYAN, GKNERPS, SNRDSSGFQVF -> 2.71, 2.62, 2.65
* EGDSLRYYYAN, GHNNYPS, SERDSSGFQVF -> nd, nd, nd
* EGDSLRKYYAN, GKNNRPR, SRRDSSGFQVF -> nd, nd, nd
* EGDSSRYWYAN, GKNNRPS, SKRDSSGFQVF -> 3.76, 3.53, 4.66
* ETDSLRYYYAN, FKNNRPS, SARDSSGFQVF -> nd, 4.11, nd
* EGDDLRYYYAN, GKNNRPS, AARDSSGFQVF -> 2.46, 2.14, 2.38
* EGDSLRYYYAN, GKNNRPS, SLRCSFGFQVF -> 2.50, 2.39, 2.53
* EGDSLRYWYAN, GKNNKPS, SIRDSSGFQVF -> 2.20, 2.38, 2.09
* EGDSLRYYYAN, GKNNRFS, SQGDSSGFQVF -> 3.24, 3.78, 2.35
* HGDSLRYYYAN, GKNNRPS, SMRYSSGFQVF -> nd, nd, nd
* EGDSLRYYYAN, EKNNRPS, SDRDSFGFQVF -> 3.91, 2.91, nd

Picked from the list: the 3 lowest averages where every replicate gave a value.

CDR-L1,CDR-L2,CDR-L3,log10 Kd (nM) by replicate
EGDSLRYDYAN,GKNNRPS,SVRDGSGFQVF,"1.75, 1.56, 1.13"
EGDSLRYYYAN,GKNNRPS,SWRDSSKFQVG,"2.03, 1.89, 1.86"
EGDSLRYYYAN,GKNNRPS,SVRDSSGFQVF,"2.22, 2.03, 1.98"

As a blank, each scFv also met three strains without target: over library AAYL52, 28% of these pairings were detected, typically at 3.91 and seldom below 2.90.